According to paper PMC2409900, “Pharmacokinetics of the nonsteroidal steroid sulphatase inhibitor 667 COUMATE and its sequestration into red blood cells in rats” (British Journal of Cancer, 2004):

Test: Pharmacokinetic study: plasma levels after single i.v. or p.o. dose
Details: rat, no conversion to 667 COUMARIN or other metabolites detected

NS(=O)(=O)Oc1ccc2c3c(c(=O)oc2c1)CCCCC3 [667 COUMATE, 6-oxo-8,9,10,11-tetrahydro-7H-cyclohepta-[c] [1] benzopyran-3-O-sulphamate]
resistance to metabolism in vivo: relatively resistant to metabolism
